Test results: patent US11124554B2, “Modified ligand-gated ion channels and methods of use” (Howard Hughes Medical Institute, priority 2016, dated 2021)

By UniProt entry, the sequences of proteins in these tests, tags left out. Chains listed by the source or under a name are the forms on record and can include a tag or linker.
UniProt P36544, with tags, fused parts or gaps T225I/M226I: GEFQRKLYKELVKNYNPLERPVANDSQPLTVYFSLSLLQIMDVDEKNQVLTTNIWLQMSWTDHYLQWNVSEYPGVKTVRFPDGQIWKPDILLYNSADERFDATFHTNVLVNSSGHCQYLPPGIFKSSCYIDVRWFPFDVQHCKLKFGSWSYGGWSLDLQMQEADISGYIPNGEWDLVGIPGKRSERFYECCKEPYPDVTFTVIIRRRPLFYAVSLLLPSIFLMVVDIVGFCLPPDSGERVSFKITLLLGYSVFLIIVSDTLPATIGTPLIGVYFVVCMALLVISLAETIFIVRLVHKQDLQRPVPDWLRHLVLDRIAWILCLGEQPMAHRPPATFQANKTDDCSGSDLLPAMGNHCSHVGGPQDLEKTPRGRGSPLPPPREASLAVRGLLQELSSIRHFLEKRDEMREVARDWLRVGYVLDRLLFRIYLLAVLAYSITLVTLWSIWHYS
UniProt P36544, with tags, fused parts or gaps Q79G/T225I/M226I: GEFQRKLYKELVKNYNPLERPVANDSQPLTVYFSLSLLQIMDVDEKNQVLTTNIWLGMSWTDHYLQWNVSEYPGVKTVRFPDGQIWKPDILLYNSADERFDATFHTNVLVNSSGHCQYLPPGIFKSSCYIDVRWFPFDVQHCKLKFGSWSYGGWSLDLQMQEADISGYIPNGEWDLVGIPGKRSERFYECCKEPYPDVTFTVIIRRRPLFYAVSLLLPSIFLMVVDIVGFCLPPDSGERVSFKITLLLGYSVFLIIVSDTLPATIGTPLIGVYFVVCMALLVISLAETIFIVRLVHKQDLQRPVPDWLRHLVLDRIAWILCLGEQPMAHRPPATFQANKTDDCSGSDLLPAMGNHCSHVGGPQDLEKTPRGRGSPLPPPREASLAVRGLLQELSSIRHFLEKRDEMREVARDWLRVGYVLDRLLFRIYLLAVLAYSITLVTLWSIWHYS
UniProt P36544, with tags, fused parts or gaps Q79A: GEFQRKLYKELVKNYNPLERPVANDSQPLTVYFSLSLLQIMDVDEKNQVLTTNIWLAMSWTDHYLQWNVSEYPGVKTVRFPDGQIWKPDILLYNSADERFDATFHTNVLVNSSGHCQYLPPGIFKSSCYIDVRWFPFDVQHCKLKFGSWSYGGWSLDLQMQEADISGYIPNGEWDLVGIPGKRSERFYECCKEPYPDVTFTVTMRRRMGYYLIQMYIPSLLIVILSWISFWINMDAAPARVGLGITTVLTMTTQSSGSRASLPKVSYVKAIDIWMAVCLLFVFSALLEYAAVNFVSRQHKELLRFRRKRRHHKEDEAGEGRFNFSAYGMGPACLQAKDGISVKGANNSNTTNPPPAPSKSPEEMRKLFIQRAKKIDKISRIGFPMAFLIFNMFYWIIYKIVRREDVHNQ
UniProt P36544, with tags, fused parts or gaps Q79S: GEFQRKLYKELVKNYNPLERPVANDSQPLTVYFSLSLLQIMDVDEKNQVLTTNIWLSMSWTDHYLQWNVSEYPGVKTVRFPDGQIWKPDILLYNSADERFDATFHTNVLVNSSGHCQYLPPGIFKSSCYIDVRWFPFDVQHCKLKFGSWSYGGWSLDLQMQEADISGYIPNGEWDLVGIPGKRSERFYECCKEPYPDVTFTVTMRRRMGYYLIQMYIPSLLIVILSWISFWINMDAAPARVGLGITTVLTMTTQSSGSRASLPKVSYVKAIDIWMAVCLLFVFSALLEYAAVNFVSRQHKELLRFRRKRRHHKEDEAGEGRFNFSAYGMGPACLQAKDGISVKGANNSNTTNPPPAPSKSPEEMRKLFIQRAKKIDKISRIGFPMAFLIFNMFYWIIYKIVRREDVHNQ
UniProt P36544, with tags, fused parts or gaps G175K: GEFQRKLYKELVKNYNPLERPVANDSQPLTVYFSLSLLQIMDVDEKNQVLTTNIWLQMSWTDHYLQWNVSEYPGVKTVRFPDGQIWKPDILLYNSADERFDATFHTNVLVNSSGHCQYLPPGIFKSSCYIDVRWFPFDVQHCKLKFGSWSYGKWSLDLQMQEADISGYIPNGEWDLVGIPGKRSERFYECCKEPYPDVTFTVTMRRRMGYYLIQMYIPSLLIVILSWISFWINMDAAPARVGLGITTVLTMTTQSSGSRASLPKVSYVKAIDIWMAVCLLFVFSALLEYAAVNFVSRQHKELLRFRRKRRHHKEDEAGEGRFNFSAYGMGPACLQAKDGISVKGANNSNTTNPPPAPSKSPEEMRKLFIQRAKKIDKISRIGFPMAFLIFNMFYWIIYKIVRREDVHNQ
UniProt P36544, with tags, fused parts or gaps Y115F/G175K: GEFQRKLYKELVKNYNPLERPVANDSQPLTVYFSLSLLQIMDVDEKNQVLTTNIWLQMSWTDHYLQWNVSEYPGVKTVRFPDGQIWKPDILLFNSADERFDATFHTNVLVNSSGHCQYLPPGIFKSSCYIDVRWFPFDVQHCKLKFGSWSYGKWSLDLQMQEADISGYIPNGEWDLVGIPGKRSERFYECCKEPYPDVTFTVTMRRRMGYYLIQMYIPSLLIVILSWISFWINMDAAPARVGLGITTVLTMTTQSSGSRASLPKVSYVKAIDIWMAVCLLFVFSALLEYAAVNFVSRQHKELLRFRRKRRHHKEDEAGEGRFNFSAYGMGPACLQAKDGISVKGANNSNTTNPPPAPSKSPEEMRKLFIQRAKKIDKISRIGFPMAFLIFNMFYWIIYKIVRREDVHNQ
UniProt P36544, with tags, fused parts or gaps G175K/Y210F: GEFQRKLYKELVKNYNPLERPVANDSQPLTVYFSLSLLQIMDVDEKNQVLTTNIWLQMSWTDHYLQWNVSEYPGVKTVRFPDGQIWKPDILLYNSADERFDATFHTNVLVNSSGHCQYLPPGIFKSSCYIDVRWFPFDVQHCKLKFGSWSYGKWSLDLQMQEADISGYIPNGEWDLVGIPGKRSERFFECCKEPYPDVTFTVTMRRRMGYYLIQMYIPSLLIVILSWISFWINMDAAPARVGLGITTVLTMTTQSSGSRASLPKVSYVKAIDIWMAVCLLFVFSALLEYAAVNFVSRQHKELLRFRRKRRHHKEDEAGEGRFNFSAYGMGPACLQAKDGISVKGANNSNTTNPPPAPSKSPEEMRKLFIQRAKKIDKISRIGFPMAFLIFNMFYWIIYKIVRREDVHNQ
UniProt P36544, with tags, fused parts or gaps W77F/G175K: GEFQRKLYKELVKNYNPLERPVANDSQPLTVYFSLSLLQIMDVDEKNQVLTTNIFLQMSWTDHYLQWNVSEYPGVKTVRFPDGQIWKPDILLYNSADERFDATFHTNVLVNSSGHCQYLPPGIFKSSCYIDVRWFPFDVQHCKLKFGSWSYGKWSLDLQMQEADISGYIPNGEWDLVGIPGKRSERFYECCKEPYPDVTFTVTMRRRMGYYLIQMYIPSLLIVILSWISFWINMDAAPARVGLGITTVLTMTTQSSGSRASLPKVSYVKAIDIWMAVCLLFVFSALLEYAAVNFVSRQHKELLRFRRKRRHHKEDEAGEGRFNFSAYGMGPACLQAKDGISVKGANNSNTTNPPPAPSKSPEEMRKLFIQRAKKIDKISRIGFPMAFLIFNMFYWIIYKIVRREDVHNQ
UniProt P36544, with tags, fused parts or gaps Q79G/G175K: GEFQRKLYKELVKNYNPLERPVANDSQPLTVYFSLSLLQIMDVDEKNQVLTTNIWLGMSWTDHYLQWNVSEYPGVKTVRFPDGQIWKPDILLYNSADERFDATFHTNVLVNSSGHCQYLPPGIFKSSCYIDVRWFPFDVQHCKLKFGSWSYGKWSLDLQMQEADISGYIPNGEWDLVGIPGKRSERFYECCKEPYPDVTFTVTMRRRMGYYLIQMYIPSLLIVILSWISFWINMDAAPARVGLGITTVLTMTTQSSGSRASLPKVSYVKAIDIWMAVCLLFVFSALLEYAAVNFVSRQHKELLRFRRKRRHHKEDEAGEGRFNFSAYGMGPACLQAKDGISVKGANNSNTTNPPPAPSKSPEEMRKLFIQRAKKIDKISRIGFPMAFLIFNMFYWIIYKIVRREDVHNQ
UniProt P36544, with tags, fused parts or gaps W77F/Q79G/G175K: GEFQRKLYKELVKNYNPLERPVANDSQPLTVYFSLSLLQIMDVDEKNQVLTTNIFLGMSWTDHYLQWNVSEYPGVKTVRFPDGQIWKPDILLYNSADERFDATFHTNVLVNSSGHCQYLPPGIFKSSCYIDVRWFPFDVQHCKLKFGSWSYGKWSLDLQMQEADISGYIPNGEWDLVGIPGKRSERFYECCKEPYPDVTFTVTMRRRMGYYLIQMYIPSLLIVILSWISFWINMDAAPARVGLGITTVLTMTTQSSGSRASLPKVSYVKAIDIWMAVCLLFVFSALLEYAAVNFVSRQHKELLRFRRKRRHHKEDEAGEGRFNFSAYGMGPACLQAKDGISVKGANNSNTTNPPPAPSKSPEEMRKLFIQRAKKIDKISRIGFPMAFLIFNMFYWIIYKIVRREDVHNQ
UniProt P36544, with tags, fused parts or gaps W77F/Q79G/Y115F/G175K: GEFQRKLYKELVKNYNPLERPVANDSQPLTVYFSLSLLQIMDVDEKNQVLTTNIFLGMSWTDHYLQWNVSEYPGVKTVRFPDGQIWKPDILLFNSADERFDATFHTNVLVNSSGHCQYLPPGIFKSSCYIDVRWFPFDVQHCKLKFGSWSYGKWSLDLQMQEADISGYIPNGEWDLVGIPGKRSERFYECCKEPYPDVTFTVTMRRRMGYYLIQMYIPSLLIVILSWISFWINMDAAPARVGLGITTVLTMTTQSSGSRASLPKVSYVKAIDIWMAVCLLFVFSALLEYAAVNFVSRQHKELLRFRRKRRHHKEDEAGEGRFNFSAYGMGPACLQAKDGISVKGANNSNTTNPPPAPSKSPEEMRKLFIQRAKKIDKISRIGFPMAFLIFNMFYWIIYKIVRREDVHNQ
UniProt P36544, with tags, fused parts or gaps W77F/G175K/Y210F: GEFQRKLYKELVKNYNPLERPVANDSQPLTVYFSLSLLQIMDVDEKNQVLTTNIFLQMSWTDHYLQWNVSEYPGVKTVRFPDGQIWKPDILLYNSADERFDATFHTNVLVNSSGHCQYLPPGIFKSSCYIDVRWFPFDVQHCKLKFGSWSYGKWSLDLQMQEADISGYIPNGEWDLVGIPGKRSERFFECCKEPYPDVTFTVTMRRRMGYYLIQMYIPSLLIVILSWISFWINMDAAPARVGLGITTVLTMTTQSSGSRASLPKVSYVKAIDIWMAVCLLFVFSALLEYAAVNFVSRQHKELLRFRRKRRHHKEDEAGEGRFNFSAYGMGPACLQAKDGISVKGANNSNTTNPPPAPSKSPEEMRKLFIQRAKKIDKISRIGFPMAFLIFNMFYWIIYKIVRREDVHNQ
α7^Q79G,Y115F,G175K-GlyR (Homo sapiens, UniProt P36544, G175K/Q79G/Y115F), UniProt P36544, with tags, fused parts or gaps Q79G/Y115F/G175K: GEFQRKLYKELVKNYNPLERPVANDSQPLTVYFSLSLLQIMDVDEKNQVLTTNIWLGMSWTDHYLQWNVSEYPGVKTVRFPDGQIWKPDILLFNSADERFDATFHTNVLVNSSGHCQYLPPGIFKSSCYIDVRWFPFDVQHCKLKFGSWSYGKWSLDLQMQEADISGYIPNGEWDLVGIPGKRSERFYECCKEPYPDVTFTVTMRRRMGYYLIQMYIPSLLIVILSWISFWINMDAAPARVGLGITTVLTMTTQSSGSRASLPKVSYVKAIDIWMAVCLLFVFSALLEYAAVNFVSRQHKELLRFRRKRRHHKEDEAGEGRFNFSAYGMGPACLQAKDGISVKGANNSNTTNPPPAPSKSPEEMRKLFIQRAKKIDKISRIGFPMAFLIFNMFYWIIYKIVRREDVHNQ
UniProt P36544, with tags, fused parts or gaps Q79G/Y115F/G175K/Y210F: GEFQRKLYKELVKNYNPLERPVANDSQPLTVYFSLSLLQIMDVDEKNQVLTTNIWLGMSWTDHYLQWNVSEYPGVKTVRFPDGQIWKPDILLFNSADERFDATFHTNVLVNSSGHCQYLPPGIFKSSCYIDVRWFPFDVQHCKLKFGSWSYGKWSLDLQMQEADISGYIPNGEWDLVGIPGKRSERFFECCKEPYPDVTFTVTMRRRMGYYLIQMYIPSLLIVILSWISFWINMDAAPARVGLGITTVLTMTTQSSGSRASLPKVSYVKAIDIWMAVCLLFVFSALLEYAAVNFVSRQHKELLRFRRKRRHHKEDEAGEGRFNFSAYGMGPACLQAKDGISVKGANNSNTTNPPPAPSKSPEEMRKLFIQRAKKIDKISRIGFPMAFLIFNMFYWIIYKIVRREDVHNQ
α7GlyR Q79G Y115F G175K K322L (Homo sapiens, UniProt P36544, G175K/Q79G/Y115F), UniProt P36544, with tags, fused parts or gaps Q79G/Y115F/G175K: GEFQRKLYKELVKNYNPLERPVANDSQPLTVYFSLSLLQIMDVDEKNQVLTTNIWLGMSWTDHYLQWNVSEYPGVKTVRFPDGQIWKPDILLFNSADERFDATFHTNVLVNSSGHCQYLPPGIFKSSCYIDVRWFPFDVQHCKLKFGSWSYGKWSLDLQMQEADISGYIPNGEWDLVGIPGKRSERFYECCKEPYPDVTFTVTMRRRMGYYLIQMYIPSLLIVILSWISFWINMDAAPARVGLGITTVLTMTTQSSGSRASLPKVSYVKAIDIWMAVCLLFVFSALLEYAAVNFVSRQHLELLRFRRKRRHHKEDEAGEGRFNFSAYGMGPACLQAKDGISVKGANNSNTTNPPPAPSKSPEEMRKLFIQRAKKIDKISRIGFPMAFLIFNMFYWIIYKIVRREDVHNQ

Columns and labels:
[1] = biological target: T1, α7-5HT3 (Homo sapiens, UniProt P36544, M226I/T225I); assay: Agonist potency (EC50), HEK cells expressing chimeric channel; assay type: cell-based, human α7 nAChR LBD, murine 5HT3 IPD
T1 construct: expressed in transfected cells; host or cells: HEK cells

[2] = biological target: T2, α7^Q79G-5HT3 (Homo sapiens, UniProt P36544, M226I/Q79G/T225I); assay: as above; assay type: cell-based, human α7 nAChR LBD, murine 5HT3 IPD
T2 construct: expressed in transfected cells; host or cells: HEK cells

[3] = biological target: T3, α7^Q79A-GlyR (Homo sapiens, UniProt P36544, Q79A); assay: as above; assay type: cell-based; conditions: read-out: Mean EC50 and SEM in parentheses, α7^Q79A-GlyR
T3 construct: expressed in transfected cells; host or cells: HEK cells

[4] = biological target: T4, α7^Q79S-GlyR (Homo sapiens, UniProt P36544, Q79S); assay: as above; assay type: cell-based; conditions: read-out: Mean EC50 and SEM in parentheses, α7^Q79S-GlyR
T4 construct: expressed in transfected cells; host or cells: HEK cells

[5] = biological target: T5, α7^G175K-GlyR (Homo sapiens, UniProt P36544, G175K); assay: Agonist potency at chimeric channel; assay type: cell-based; conditions: read-out: Agonist potency, α7GlyR G175K
T5 construct: expressed in transfected cells

[6] = biological target: T6, α7^Y115F,G175K-GlyR (Homo sapiens, UniProt P36544, G175K/Y115F); assay: Agonist potency at chimeric channel; assay type: cell-based
T6 construct: expressed in transfected cells

[7] = biological target: T7, α7^G175K,Y210F-GlyR (Homo sapiens, UniProt P36544, G175K/Y210F); assay: Agonist potency at chimeric channel; assay type: cell-based; conditions: read-out: Agonist potency, α7GlyR G175K Y210F
T7 construct: expressed in transfected cells

[8] = biological target: T8, α7^W77F,G175K-GlyR (Homo sapiens, UniProt P36544, G175K/W77F); assay: Agonist potency at chimeric channel; assay type: cell-based; conditions: read-out: Agonist potency, α7GlyR W77F G175K
T8 construct: expressed in transfected cells

[9] = biological target: T9, α7^Q79G,G175K-GlyR (Homo sapiens, UniProt P36544, G175K/Q79G); assay: Agonist potency at chimeric channel; assay type: cell-based; conditions: read-out: Agonist potency, α7GlyR Q79G G175K
T9 construct: expressed in transfected cells

[10] = biological target: T10, α7^W77F,Q79G,G175K-GlyR (Homo sapiens, UniProt P36544, G175K/Q79G/W77F); assay: Agonist potency at chimeric channel; assay type: cell-based; conditions: read-out: Agonist potency, α7GlyR W77F Q79G G175K
T10 construct: expressed in transfected cells

[11] = biological target: T11, α7GlyR W77F Q79G Y115F G175K (Homo sapiens, UniProt P36544, G175K/Q79G/W77F/Y115F); assay: Agonist potency at chimeric channel; assay type: cell-based
T11 construct: expressed in transfected cells

[12] = biological target: T12, α7^W77F,G175K,Y210F-GlyR (Homo sapiens, UniProt P36544, G175K/W77F/Y210F); assay: Agonist potency at chimeric channel; assay type: cell-based; conditions: read-out: Agonist potency, α7GlyR W77F G175K Y210F
T12 construct: expressed in transfected cells

[13] = biological target: T13, α7^Q79G,Y115F,G175K-GlyR (Homo sapiens, UniProt P36544, G175K/Q79G/Y115F); assay: Agonist potency at chimeric channel; assay type: cell-based; conditions: read-out: Agonist potency, α7GlyR Q79G G175K Y115F
T13 construct: expressed in transfected cells

[14] = biological target: T14, α7GlyR Q79G Y115F G175K Y210F (Homo sapiens, UniProt P36544, G175K/Q79G/Y115F/Y210F); assay: Agonist potency at chimeric channel; assay type: cell-based
T14 construct: expressed in transfected cells

[15] = biological target: T15, α7GlyR Q79G Y115F G175K K322L (Homo sapiens, UniProt P36544, G175K/Q79G/Y115F); assay: Agonist potency at chimeric channel; assay type: cell-based
T15 construct: expressed in transfected cells

[16] = biological target: T16, α7^L141F,Y115F,G175K-GlyR (Homo sapiens, UniProt P36544, G175K/L141F/Y115F); assay: Agonist potency at chimeric channel; assay type: cell-based; conditions: read-out: Agonist potency, α7GlyR Y115F G175K L141F
T16 construct: expressed in transfected cells

[17] = biological target: T17, α7^Q79G,Q139L,G175K-GlyR (Homo sapiens, UniProt P36544, G175K/Q139L/Q79G); assay: Agonist potency at chimeric channel; assay type: cell-based; conditions: read-out: Agonist potency, α7GlyR Q79G Q139L G175K
T17 construct: expressed in transfected cells

[18] = biological target: T18, α7GlyR Q79G G175K Y115F R27D E41R (Homo sapiens, UniProt P36544, E41R/G175K/Q79G/R27D/Y115F); assay: Agonist potency at chimeric channel; assay type: cell-based
T18 construct: expressed in transfected cells

[19] = biological target: T19, α7^Y115F-GlyR G175A (Homo sapiens, UniProt P36544, G175A/Y115F); assay: Agonist potency at chimeric channel (Table 8); assay type: cell-based; conditions: α7GlyR Y115F G175A
T19 construct: expressed in transfected cells

[20] = biological target: T20, α7^Y115F-GlyR G175F (Homo sapiens, UniProt P36544, G175F/Y115F); assay: Agonist potency at chimeric channel (Table 8); assay type: cell-based; conditions: α7GlyR Y115F G175F
T20 construct: expressed in transfected cells

[21] = biological target: T21, α7^Y115F-GlyR G175M (Homo sapiens, UniProt P36544, G175M/Y115F); assay: Agonist potency at chimeric channel (Table 8); assay type: cell-based; conditions: α7GlyR Y115F G175M
T21 construct: expressed in transfected cells

[22] = biological target: T22, α7^Y115F-GlyR G175R (Homo sapiens, UniProt P36544, G175R/Y115F); assay: Agonist potency at chimeric channel (Table 8); assay type: cell-based; conditions: α7GlyR Y115F G175R
T22 construct: expressed in transfected cells

[23] = biological target: T23, α7^Y115F-GlyR G175S (Homo sapiens, UniProt P36544, G175S/Y115F); assay: Agonist potency at chimeric channel (Table 8); assay type: cell-based; conditions: α7GlyR Y115F G175S
T23 construct: expressed in transfected cells

[24] = biological target: T24, α7^L131A-GlyR (Homo sapiens, UniProt P36544, L131A); assay: Agonist potency at chimeric channel (Table 9); assay type: cell-based
T24 construct: expressed in transfected cells

[25] = biological target: T25, α7^Q79S,L131G-GlyR (Homo sapiens, UniProt P36544, L131G/Q79S); assay: Agonist potency at chimeric channel (Table 9); assay type: cell-based
T25 construct: expressed in transfected cells

[26] = biological target: T26, α7^L131M-GlyR (Homo sapiens, UniProt P36544, L131M); assay: Agonist potency at chimeric channel (Table 9); assay type: cell-based
T26 construct: expressed in transfected cells

[27] = biological target: T27, α7^L131Q-GlyR (Homo sapiens, UniProt P36544, L131Q); assay: Agonist potency at chimeric channel (Table 9); assay type: cell-based
T27 construct: expressed in transfected cells

[28] = biological target: T28, α7^L131F-GlyR (Homo sapiens, UniProt P36544, L131F); assay: Agonist potency at chimeric channel (Table 9); assay type: cell-based
T28 construct: expressed in transfected cells

[29] = biological target: T29, α7^L131G-GABAc (Homo sapiens, UniProt P36544, L131G); assay: Agonist potency at chimeric channel (Table 9); assay type: cell-based
T29 construct: expressed in transfected cells

[30] = biological target: T30, α7^L131G,Q139L,Y217F-5HT3 HC (Homo sapiens, UniProt P36544, L131G/M226I/Q139L/T225I/Y217F); assay: Agonist potency at chimeric channel (Table 9); assay type: cell-based; conditions: α75HT3 L131G Q139L Y217F HC
T30 construct: expressed in transfected cells

[31] = biological target: T31, α7GABAc (GABAA-ρ) W298A (Homo sapiens, UniProt P36544, L141F/Q79G); assay: Agonist potency at chimeric channel (Table 7); assay type: cell-based
T31 construct: expressed in transfected cells

[32] = biological target: T32, α7^L131N-GlyR (Homo sapiens, UniProt P36544, L131N); assay: Agonist potency at chimeric channel (Table 9); assay type: cell-based; conditions: α7GlyR L131N
T32 construct: expressed in transfected cells

[33] = biological target: T33, α7GlyR R27D E41R Q79G Y115F (Homo sapiens, UniProt P36544, E41R/Q79G/R27D/Y115F); assay: Agonist potency at chimeric channel (Table 7); assay type: cell-based
T33 construct: expressed in transfected cells

[34] = biological target: T34, α7GlyR Q79G L131G (Homo sapiens, UniProt P36544, L131G/Q79G); assay: Agonist potency at chimeric channel (Table 9); assay type: cell-based
T34 construct: expressed in transfected cells

[35] = biological target: T35, α7GlyR L131G D219A (Homo sapiens, UniProt P36544, D219A/L131G); assay: Agonist potency at chimeric channel (Table 9); assay type: cell-based
T35 construct: expressed in transfected cells

[36] = biological target: T36, α7GlyR Y115F L131M (Homo sapiens, UniProt P36544, L131M/Y115F); assay: Agonist potency at chimeric channel (Table 9); assay type: cell-based
T36 construct: expressed in transfected cells

## c1cnc2cc3c(cc2n1)[C@@H]1CNC[C@H]3C1 [Varenicline]
[1]
  EC50: 920 nM
[2]
  EC50: 910 nM
[3]
  EC50: 480 nM
[4]
  EC50: 280 nM
[5]
  EC50: 56 nM
[6]; read-out: Agonist potency
  EC50: 5000 nM
[6]; read-out: Agonist potency, α7GlyR Y115F G175K
  EC50: 5000 nM
[7]
  EC50: 4300 nM
[8]
  EC50: 570 nM
[9]
  EC50: 420 nM
[10]
  EC50: 3300 nM
[11]
  EC50: > 10000 nM
[12]
  EC50: > 9000 nM
[13]
  EC50: > 10000 nM
[14]
  EC50: > 30000 nM
[15]
  EC50: > 30000 nM
[16]
  EC50: > 8100 nM
[17]
  EC50: 960 nM
[18]
  EC50: 4900 nM
[19]
  EC50: 5900 nM
[20]
  EC50: 13600 nM
[21]
  EC50: 14100 nM
[22]
  EC50: 7600 nM
[23]
  EC50: 9700 nM
[24]
  EC50: 82 nM
[25]
  EC50: 7 nM
[26]
  EC50: 530 nM
[27]
  EC50: 720 nM
[28]
  EC50: 2600 nM
[29]
  EC50: 300 nM
[30]
  EC50: 7 nM
[31]
  EC50: 6270 nM
[32]
  EC50: 69 nM
[33]
  EC50: > 30000 nM
[34]
  EC50: > 10000 nM
[35]
  EC50: 780 nM
[36]
  EC50: > 100000 nM

Where two headings read alike, the source gives them in different places.
